Experimental data published in ChEMBL document CHEMBL1125119, “Pyrroloisoquinoline antidepressants. 3. A focus on serotonin” (J Med Chem, 1990).

target: serotonin transporter (Rattus norvegicus); test: Tested in vitro for serotonin(5-HT) neuronal uptake inhibition

Row | SMILES | Ki [nM]
1 | NC(=O)c1ccc(C2CN3CCCC3c3ccccc32)cc1 (stereo not drawn) | 19.1
2 | FC(F)(F)c1ccc(C2CN3CCCC3c3ccccc32)cc1 (stereo not drawn) | 4.8
3 | Clc1ccc(C2CN3CCCC3c3cc(Cl)ccc32)cc1 (stereo not drawn) | 2.9
